Measurements reported in patent US9376380B2 (University of Pittsburgh—Of the Commonwealth System of …, priority 2011, dated 2016).

By UniProt entry, the sequences of proteins in these tests, tags left out.
UniProt P34972, whole entry: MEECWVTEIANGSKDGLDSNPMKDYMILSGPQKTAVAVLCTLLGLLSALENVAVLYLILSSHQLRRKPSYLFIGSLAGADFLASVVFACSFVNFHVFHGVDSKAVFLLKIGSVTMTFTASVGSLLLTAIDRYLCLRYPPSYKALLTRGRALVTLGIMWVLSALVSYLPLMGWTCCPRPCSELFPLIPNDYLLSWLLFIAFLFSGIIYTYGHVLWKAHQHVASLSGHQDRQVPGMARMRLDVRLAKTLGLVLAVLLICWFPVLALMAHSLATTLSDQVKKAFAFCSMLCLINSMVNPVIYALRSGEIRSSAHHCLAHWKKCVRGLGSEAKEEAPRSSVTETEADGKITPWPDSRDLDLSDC
UniProt P21554, whole entry: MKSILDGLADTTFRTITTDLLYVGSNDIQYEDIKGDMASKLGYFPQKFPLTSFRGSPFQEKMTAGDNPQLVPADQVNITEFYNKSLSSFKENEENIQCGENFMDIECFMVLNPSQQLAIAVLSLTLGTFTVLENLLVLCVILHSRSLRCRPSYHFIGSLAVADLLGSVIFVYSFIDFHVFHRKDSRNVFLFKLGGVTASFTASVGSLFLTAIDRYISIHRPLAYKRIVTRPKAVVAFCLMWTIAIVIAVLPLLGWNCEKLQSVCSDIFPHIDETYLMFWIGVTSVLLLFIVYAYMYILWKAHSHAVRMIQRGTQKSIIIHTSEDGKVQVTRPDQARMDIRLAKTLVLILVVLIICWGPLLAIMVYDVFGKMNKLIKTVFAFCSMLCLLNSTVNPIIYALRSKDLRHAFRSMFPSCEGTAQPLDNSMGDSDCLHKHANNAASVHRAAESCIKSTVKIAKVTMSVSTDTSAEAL

Key:
CB2 receptor = CB2 receptor (Homo sapiens, UniProt P34972); test: [3H]CP-55,940 radioligand competition binding, CB2; parameters: host or cells: cell membrane preparations; conditions: for SI: selectivity index for CB2: Ki(CB1)/Ki(CB2) ratio; for Ki: [3H]CP-55,940 displacement
CB1 receptor = CB1 receptor (Homo sapiens, UniProt P21554); test: [3H]CP-55,940 radioligand competition binding, CB1

SMILES | SI: selectivity index for CB2 (CB2 receptor) | Ki (CB2 receptor) | also measured
CCN(CC)c1ccc(CN(c2ccc(Cl)cc2)S(=O)(=O)c2cccc(C)c2)cc1 [Compound 86, N-(4-Chlorophenyl)-N-(4-(diethylamino)benzyl)-3-methylbenzenesulfonamide] | 309 | – | –
CCCCCCCN(Cc1ccc(N(CC)CC)cc1)S(=O)(=O)c1ccc(C)cc1 [Compound 67, N-(4-(Diethylamino)benzyl)-N-heptyl-4-methylbenzenesulfonamide] | – | 2.75 µM | –
CCN(CC)c1ccc(CN(c2ccc(C)cc2)S(=O)(=O)c2ccc(Cl)cc2)cc1 [Compound 92, 4-Chloro-N-(4-(diethylamino)benzyl)-N-(p-tolyl)benzenesulfonamide] | 137 | – | –
CCN(CC)c1ccc(CN(c2ccc(Cl)cc2)S(=O)(=O)c2ccccc2)cc1 [Compound 81, N-(4-Chlorophenyl)-N-(4-(diethylamino)benzyl)benzenesulfonamide] | – | 0.02 µM | –
CCN(CC)c1ccc(CN(C23CC4CC(CC(C4)C2)C3)S(=O)(=O)c2ccc(OC)cc2)cc1 [Compound 59, N-(3r)-Adamantan-1-yl)-N-(4-(diethylamino)benzyl)-4-methoxybenzenesulfonamide] | – | – | Ki (CB1 receptor): 7.3 µM
